The target of the assay is T1, Gamma-aminobutyric acid receptor subunit alpha-1 (Homo sapiens, UniProt P14867).
T1 sequence (P14867 whole entry): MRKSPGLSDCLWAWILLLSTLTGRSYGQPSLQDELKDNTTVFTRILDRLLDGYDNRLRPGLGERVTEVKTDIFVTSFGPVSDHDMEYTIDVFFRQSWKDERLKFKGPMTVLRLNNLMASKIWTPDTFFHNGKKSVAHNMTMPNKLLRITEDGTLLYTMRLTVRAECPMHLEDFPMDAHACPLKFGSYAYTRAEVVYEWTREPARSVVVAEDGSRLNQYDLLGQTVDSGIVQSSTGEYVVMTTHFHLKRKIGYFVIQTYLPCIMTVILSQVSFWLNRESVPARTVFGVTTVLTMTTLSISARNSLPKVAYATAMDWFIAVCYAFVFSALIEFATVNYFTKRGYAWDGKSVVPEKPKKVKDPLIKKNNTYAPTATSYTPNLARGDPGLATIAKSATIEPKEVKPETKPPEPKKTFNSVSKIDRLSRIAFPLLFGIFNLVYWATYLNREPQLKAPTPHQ

“And” between values parts separate entries of the source, which are not always exact repeats. Equal values may be shown once. Bounds are passed on as bounds.

This passage reports Ki results from BindingDB's records for PubMed 9396785 (Merck Sharp and Dohme Research Laboratories, 1997).

As for `CN1CCc2cc3c(cc2[C@H]1[C@@H]1OC(=O)c2c1ccc1c2OCO1)OCO3` [(R)-6-((S)-6-methyl-5,6,7,8-tetrahydro-[1,3]dioxolo[4,5-g]isoquinolin-5-yl)isobenzofuro[5,4-d][1,3]dioxol-8(6H)-one], the Ki – broadly, the dissociation constant of the complex between target and ligand, obtained from inhibition or displacement – was > 10 µM and 4.57 µM.
